Where two headings read alike, the source gives them in different places.
How the values were obtained:
[1] = target: peptide encoding the juxtamembrane region of ERBB2 (Homo sapiens, UniProt P04626); experiment: Surface Plasmon Resonance, Biacore T200; details: tested form: HCl
Excerpt: We analyzed the ability of ZU to directly bind to the juxtamembrane domain of ErbB2 using Surface Plasmon Resonance assays on a Biacore T200. For that, we compared the affinity of the compounds for a peptide containing the Ezrin binding motif ILIKRRQQKIRKYTMRRL of ErbB2 immobilized on sensorchips, which was reflected by the amplitude of the SPR response.
Compound ZU and EB1 were validated for their interaction with peptide encoding the juxtamembrane region of ERBB2 using a Biacore T200 (IECB, Bordeaux). Biotinylated peptide encoding the juxtamembrane region of ERBB2 (biotin-ILIKRRQQKIRKYTMRRL) has been immobilized on Streptavidin-coated sensor chips (Series S sensor chip SA, GE Healthcare). Compound ZU in PBS, 0.02% tween20 buffer was used as analyte, and the Ezrin FERM domain has been used as a positive control.

[2] = target: T1, ErbB2 (Homo sapiens, UniProt P04626); experiment: ErbB2 phosphorylation in SKBR3 cells, dot blot (4G10); details: tested form: HCl
[3] = tested on: SKOV3; experiment: MTT cell proliferation, SKOV3; details: 3, 5 and 7 μM, days 2 and 3, serum 1%; tested form: HCl
Protocol: The ErbB2-overexpressing ovarian cancer cell line SKOV3 and MDAMB-231, a non ErbB2-overexpressing breast cancer cell line were treated with 3, 5 or 7 μM of ZU and cell proliferation was determined each day during 3 days using an MTT assay. Non treated cells were included as a negative control.

[4] = target: FERM/CD44 interaction (Homo sapiens, UniProt P16070); experiment: AlphaScreen counter screen, FERM/CD44 interaction; details: tested form: HCl
Excerpt: To validate that the Zuclopenthixol hydrochloride (ZU) and its derivatives interact with the juxtamembrane domain of ErbB2, we first analyzed in AlphaScreen® their efficiency to inhibit FERM/ErbB2 interaction in a dose-dependent manner and determined IC50 value. Furthermore, to test the selectivity of those compounds, we tested their ability to disrupt the interaction between the FERM domain and the known ERM binding motif contained in the juxtamembrane region of CD44 as a control.
AlphaScreen® technology was used to assess the interaction between the Ezrin binding motif (EBM) contained in the juxtamembrane portions of ErbB2 or CD44 with the Ezrin FERM domain. For this purpose the Ezrin FERM domain in fusion with Glutathione-S-Transferase (GST) has been coupled to GSH-coated acceptor beads. Biotinylated ErbB2 peptide encoding the Ezrin binding motif (amino acid 674 to 689: biotin-ILIKRRQQKIRKYTMRRL, 26 aa) or the juxtamembrane region of CD44 (biotin-[…] ), for the counter screen have been synthesized and coupled to streptavidin-covered donor beads. […]
The reaction was performed using white 384-well Optiplates (PerkinElmer, Whalham, Mass., USA) in 20 μl (total reaction volume) in a reaction buffer containing PBS, pH 7.4, 5 mM MgCl2 and 0.02% CHAPS. […] Light signal was detected with the EnVision® multilabel plate reader (PerkinElmer). […]

[5] = tested on: SKOV3; experiment: Soft agar colony formation, SKOV3; details: 5 or 10 μM, 6 weeks; tested form: HCl
Protocol: A bottom layer of 0.8% agarose in DMEM supplemented with 2% SVF and penicillin/streptomycin was added to 24 well plates before seeding 15.10^3 SKOV3 cells/well in a 0.6% agarose top layer. Cells were left untreated or treated with 5 or 10 μM ZU or 5 μM AG1478 (a non-specific ErbB2 kinase inhibitor) as a positive control. Treatments were renewed 3 times a week. After 6 weeks, the number of colonies and their size were quantified using image J software. The colony formation is illustrated for each condition. Data are presented as mean±SEM

[6] = target: FERM/ErbB2 interaction (Ezrin FERM domain / juxtamembrane ErbB2 peptide) (Homo sapiens, UniProt P04626); experiment: AlphaScreen competition assay, FERM/ErbB2 interaction; assay type: binding; details: read-out: IC50 FERM/ErbB2 interaction, tested form: HCl
[7] = target: T1, ErbB2; experiment: ErbB2 activation in N87 cells, dot blot (4G10); details: tested form: HCl
Protocol: The phosphotyrosine content in the ErbB2-overexpressing gastric cancer cell line N87 was analyzed by dot blot using an anti-phosphotyrosine antibody (clone 4G10). As in these cells, ErbB2 is the main phosphorylated protein, decreased in total phosphotyrosine content mainly reflected inhibition of ErbB2 activity. As a control, the non-specific ErbB2 kinase inhibitor AG1478 was used. Quantifications show the result of two independent experiments.

[8] = tested on: p95 ErbB2; experiment: Western blot pY1248, p95 ErbB2 in transfected HBMECs; details: 0, 5, 10 or 20 μM, 24 h; tested form: HCl
Protocol: HBMECs cells were transfected with plasmids encoding WT, ΔEBM (a form of ErbB2 carrying mutations in the juxtamembrane domain and unable to bind to the Ezrin FERM domain), V659E or p95 ErbB2 and treated with 0, 5, 10 or 20 μM ZU for 24 h. ErbB2 activation was then analyzed by western blot analysis using a phospho-ErbB2-specific antibody (pY1248) and a tubulin antibody as a loading control. Histograms show optical density quantification.

[9] = tested on: WT ErbB2-transfected cells; experiment: MTT cell proliferation, WT ErbB2-transfected HBMEC; details: 10 μM, day 3; tested form: HCl
Protocol: The WT, V777L or V842I ErbB2-transfected cells were treated with 5 or 10 μM of ZU and cell proliferation was determined each day during 3 days using an MTT assay. Non transfected cells were included as a negative control.
The WT, V777L or V842I ErbB2-transfected cells were treated with 5 or 10 μM of EB1 and cell proliferation was determined each day during 3 days using an MTT assay. Non transfected cells were included as a negative control.

`OCCN1CCN(CC/C=C2/c3ccccc3Sc3ccc(Cl)cc32)CC1` was tested, and the “binding to immobilized ErbB2 juxtamembrane peptide (SPR, in words)” value [1] was “bound to the immobilized peptide”, the “ErbB2 activation 24 h Max inhibition, %” value ([2]; SKBR3, 24 h, 0.625-80 μM) was 93.22% and the “maximum inhibition of ErbB2 phosphorylation” value ([2]; SKBR3, 24 h) was 90%. The “effect on ErbB2 phosphorylation/activation (in words)” value ([2]; SKBR3) was “similarly inhibited ErbB2 activation”, the EC50 ([2]; read-out: ErbB2 activation 24 h EC50, SKBR3, 24 h) was 22.4 µM and the IC50 ([2]; read-out: IC50 ErbB2 phosphorylation, SKBR3, 24 h) was 20 µM. For the same molecule, the “decrease of the proliferation of SKOV3” value [3] was 50%, the “effect on FERM/CD44 interaction” value ([4]; 1 h) was “did not interfere” and the “inhibition of FERM/CD44 interaction” value ([4]; 24 h) was 53.32%. The “formation of SKOV3 microcolonies (in words)” value [5] was “totally inhibited”, the IC50 ([6]; 1 h) was 50 µM and the IC50 ([6]; 24 h) was 9.8 µM. For the same molecule, the “ErbB2 activation in N87 cell line (in words)” value [7] was “potently decrease ErbB2 activation”, the “activation of p95 ErbB2 (in words)” value [8] was “decreased the activation” and the “decrease of the proliferation of WT transfected HBMEC” value [9] was 50%.

Source: patent US10766873B2, “Zuclopenthixol hydrochloride derivatives and Ebselen derivatives as ErbB2 inhibitors” (Centre National de la Recherche Scientifique (CNRS), priority 2016, dated 2020)
